Patent publication US10308689B2, “Dengue virus (DV) polypeptide sequences, T cell epitopes and methods and uses thereof” (LA JOLLA INSTITUTE FOR ALLERGY AND IMMUNOLOGY, priority 2010, dated 2019)

System: PBMC of healthy adult blood donors from Colombo, Sri Lanka
Experiment: Ex vivo IFNγ ELISPOT, HLA-matched PBMC of Sri Lankan blood donors
Type: cell-based, human
[1] = ex vivo IFNγ ELISPOT, donors expressing B*5801
[2] = ex vivo IFNγ ELISPOT, donors expressing HLA A*0201 (supertype A2)
[3] = ex vivo IFNγ ELISPOT, donors expressing HLA B*3501 (supertype B7)
[4] = ex vivo IFNγ ELISPOT, donors expressing HLA A*1101 (supertype A3)
[5] = ex vivo IFNγ ELISPOT, donors expressing HLA B*5801 (supertype B58)

CC[C@H](C)[C@H](NC(=O)[C@@H](NC(=O)[C@H](CO)NC(=O)[C@H](Cc1ccc(O)cc1)NC(=O)[C@H](CCCCN)NC(=O)[C@H](CC(C)C)NC(=O)[C@H](CC(N)=O)NC(=O)[C@H](CCC(=O)O)NC(=O)[C@@H](N)Cc1ccc(O)cc1)C(C)C)C(=O)O
T cell response [SFC] (ex vivo IFNγ ELISPOT, donors expressing HLA B*4402 (supertype B44)): 37 SFC

CC[C@H](C)[C@H](N)C(=O)N[C@@H](CS)C(=O)N[C@@H](CO)C(=O)N[C@@H](C)C(=O)N[C@H](C(=O)N1CCC[C@H]1C(=O)N[C@H](C(=O)N[C@@H](Cc1c[nH]cn1)C(=O)N[C@@H](Cc1c[nH]c2ccccc12)C(=O)O)C(C)C)C(C)C
T cell response [SFC] [1]: 305 SFC

CC(C)[C@H](NC(=O)[C@H](CCCNC(=N)N)NC(=O)[C@H](CCC(N)=O)NC(=O)[C@H](CCC(N)=O)NC(=O)CNC(=O)[C@H](Cc1ccccc1)NC(=O)[C@@H]1CCCN1C(=O)[C@@H](N)[C@@H](C)O)C(=O)N[C@@H](Cc1ccccc1)C(=O)O
T cell response [SFC] (ex vivo IFNγ ELISPOT, donors expressing B*3501): 48 SFC

CC[C@H](C)[C@H](NC(=O)[C@H](CC(=O)O)NC(=O)[C@H](CCCCN)NC(=O)[C@H](CCCNC(=N)N)NC(=O)[C@@H](NC(=O)[C@@H](N)CCCCN)C(C)C)C(=O)N[C@@H](CCC(N)=O)C(=O)N[C@@H](CCC(N)=O)C(=O)N[C@@H](Cc1c[nH]c2ccccc12)C(=O)O
T cell response [SFC] (ex vivo IFNγ ELISPOT, donors expressing B*5701): 115 SFC

C[C@H](NC(=O)[C@@H](NC(=O)[C@H](CCC(N)=O)NC(=O)[C@@H](NC(=O)[C@H](Cc1c[nH]cn1)NC(=O)[C@H](Cc1ccc(O)cc1)NC(=O)CNC(=O)[C@@H]1CCCN1C(=O)[C@@H](N)CCCNC(=N)N)[C@@H](C)O)[C@@H](C)O)C(=O)O
T cell response [SFC] (ex vivo IFNγ ELISPOT, donors expressing HLA B*0702 (supertype B7)): 177 SFC

CSCC[C@H](NC(=O)[C@H](CCCCN)NC(=O)[C@H](CC(C)C)NC(=O)[C@@H](NC(=O)[C@@H](N)CCCNC(=N)N)C(C)C)C(=O)N[C@H](C(=O)N[C@@H](CCC(=O)O)C(=O)N1CCC[C@H]1C(=O)N[C@@H](Cc1c[nH]c2ccccc12)C(=O)O)C(C)C
T cell response [SFC] [1]: 643 SFC

CC(C)C[C@H](NC(=O)[C@H](CC(C)C)NC(=O)[C@@H](NC(=O)[C@H](C)NC(=O)[C@H](C)NC(=O)[C@@H](NC(=O)[C@H](CC(C)C)NC(=O)[C@@H](N)[C@@H](C)O)[C@@H](C)O)C(C)C)C(=O)N[C@@H](CC(C)C)C(=O)N[C@H](C(=O)O)C(C)C
T cell response [SFC] [2]: 43 SFC

CSCC[C@H](NC(=O)[C@H](C)NC(=O)CNC(=O)[C@H](CCC(=O)O)NC(=O)[C@@H](N)CCC(N)=O)C(=O)N[C@@H](Cc1c[nH]cn1)C(=O)N[C@H](C(=O)N[C@@H](C)C(=O)N[C@@H](CC(C)C)C(=O)O)[C@@H](C)O [QEGAMHTAL]
T cell response [SFC] (ex vivo IFNγ ELISPOT, donors expressing HLA B*4001 (supertype B44)): 120 SFC

CC[C@H](C)[C@H](NC(=O)[C@H](CO)NC(=O)[C@H](C)NC(=O)[C@@H]1CCCN1C(=O)[C@@H](N)CC(=O)O)C(=O)N[C@@H](C)C(=O)N[C@@H](C)C(=O)N[C@@H](CCCNC(=N)N)C(=O)NCC(=O)N[C@@H](Cc1ccc(O)cc1)C(=O)O
T cell response [SFC] [3]: 183 SFC

C[C@@H](O)[C@H](N)C(=O)N1CCC[C@H]1C(=O)N1CCC[C@H]1C(=O)NCC(=O)N[C@@H](CO)C(=O)N[C@@H](CCCNC(=N)N)C(=O)N[C@@H](CC(=O)O)C(=O)N1CCC[C@H]1C(=O)N[C@@H](Cc1ccccc1)C(=O)O
T cell response [SFC] [3]: 210 SFC

CC[C@H](C)[C@H](NC(=O)[C@H](CO)NC(=O)[C@H](CC(C)C)NC(=O)[C@H](C)NC(=O)[C@@H](N)CCSC)C(=O)N[C@H](C(=O)N[C@@H](CO)C(=O)N[C@@H](CC(C)C)C(=O)N[C@@H](Cc1ccccc1)C(=O)O)C(C)C
T cell response [SFC] (ex vivo IFNγ ELISPOT, donors expressing HLA B*5101 (supertype B7)): 340 SFC

CC(C)C[C@H](NC(=O)[C@H](CCC(N)=O)NC(=O)[C@@H](NC(=O)[C@H](Cc1ccc(O)cc1)NC(=O)[C@@H](N)C(C)C)[C@@H](C)O)C(=O)N[C@@H](CS)C(=O)N[C@@H](CC(=O)O)C(=O)N[C@@H](Cc1c[nH]cn1)C(=O)N[C@@H](CCCNC(=N)N)C(=O)O
T cell response [SFC] (ex vivo IFNγ ELISPOT, donors expressing HLA A*3301 (supertype A3)): 28 SFC

CC(C)C[C@H](NC(=O)[C@H](CCCNC(=N)N)NC(=O)[C@@H]1CCCN1C(=O)[C@@H](N)CCCCN)C(=O)N[C@@H](CS)C(=O)N[C@H](C(=O)N[C@@H](CCCNC(=N)N)C(=O)N[C@@H](CCC(=O)O)C(=O)N[C@@H](CCC(=O)O)C(=O)N[C@@H](Cc1ccccc1)C(=O)O)[C@@H](C)O
T cell response [SFC] (ex vivo IFNγ ELISPOT, donors expressing B*0702): 48 SFC

CSCC[C@H](NC(=O)[C@H](CCC(N)=O)NC(=O)[C@@H](N)CCCNC(=N)N)C(=O)N[C@@H](CCC(=O)O)C(=O)NCC(=O)N[C@@H](CCC(=O)O)C(=O)NCC(=O)N[C@H](C(=O)N[C@@H](CC(C)C)C(=O)O)C(C)C
T cell response [SFC] (ex vivo IFNγ ELISPOT, donors expressing B*1501): 382 SFC

CSCC[C@H](NC(=O)[C@@H](NC(=O)[C@H](Cc1ccc(O)cc1)NC(=O)[C@H](CO)NC(=O)[C@@H](N)CCSC)[C@@H](C)O)C(=O)N[C@@H](CS)C(=O)N[C@@H](CO)C(=O)NCC(=O)N[C@@H](CCCCN)C(=O)O
T cell response [SFC] [4]: 48 SFC

CC[C@H](C)[C@H](NC(=O)[C@H](C)NC(=O)CNC(=O)[C@@H](N)Cc1ccccc1)C(=O)N[C@@H](Cc1ccc(O)cc1)C(=O)NCC(=O)N[C@@H](C)C(=O)N[C@@H](C)C(=O)N[C@@H](Cc1ccccc1)C(=O)O
T cell response [SFC] [3]: 28 SFC

CC(C)C[C@H](NC(=O)[C@@H](NC(=O)[C@@H]1CCCN1C(=O)CNC(=O)[C@@H](NC(=O)[C@H](C)N)[C@@H](C)O)C(C)C)C(=O)N[C@H](C(=O)N[C@@H](CC(C)C)C(=O)N[C@@H](Cc1c[nH]c2ccccc12)C(=O)O)[C@@H](C)O
T cell response [SFC] [5]: 185 SFC

CSCC[C@H](NC(=O)[C@H](Cc1ccc(O)cc1)NC(=O)[C@@H]1CCCN1C(=O)[C@H](CC(N)=O)NC(=O)[C@H](CC(C)C)NC(=O)[C@@H](N)C(C)C)C(=O)N1CCC[C@H]1C(=O)N[C@@H](CO)C(=O)N[C@H](C(=O)O)C(C)C
T cell response [SFC] (ex vivo IFNγ ELISPOT, donors expressing A*0201): 987 SFC

CSCC[C@H](N)C(=O)N[C@H](C(=O)N[C@@H](CO)C(=O)N[C@@H](CCCNC(=N)N)C(=O)N[C@@H](CC(C)C)C(=O)N[C@@H](CC(C)C)C(=O)N[C@@H](CC(C)C)C(=O)N[C@@H](CC(N)=O)C(=O)N[C@@H](CCCNC(=N)N)C(=O)O)C(C)C
T cell response [SFC] (ex vivo IFNγ ELISPOT, donors expressing A*1101): 992 SFC

CC(C)C[C@H](N)C(=O)N[C@@H](Cc1c[nH]c2ccccc12)C(=O)N[C@@H](CCC(=O)O)C(=O)NCC(=O)N[C@@H](CO)C(=O)N1CCC[C@H]1C(=O)NCC(=O)N[C@@H](CCCCN)C(=O)N[C@@H](Cc1ccccc1)C(=O)O
T cell response [SFC] (ex vivo IFNγ ELISPOT, donors expressing HLA A*2402 (supertype A24)): 57 SFC

CC[C@H](C)[C@H](NC(=O)[C@H](CC(C)C)NC(=O)[C@H](C)NC(=O)[C@H](CC(C)C)NC(=O)[C@H](CC(C)C)NC(=O)[C@H](CCSC)NC(=O)[C@@H](N)CC(C)C)C(=O)N[C@@H](C)C(=O)N[C@H](C(=O)N[C@@H](CC(C)C)C(=O)O)C(C)C
T cell response [SFC] [2]: 63 SFC

C[C@H](NC(=O)[C@H](Cc1c[nH]c2ccccc12)NC(=O)[C@@H](NC(=O)[C@H](CCCNC(=N)N)NC(=O)[C@H](Cc1ccc(O)cc1)NC(=O)[C@@H]1CCCN1C(=O)[C@H](CC(N)=O)NC(=O)[C@H](CCC(=O)O)NC(=O)[C@@H](N)CCC(N)=O)[C@@H](C)O)C(=O)N[C@@H](Cc1ccc(O)cc1)C(=O)O
T cell response [SFC] (ex vivo IFNγ ELISPOT, donors expressing B*4001): 992 SFC

CC(C)C[C@H](NC(=O)[C@@H](NC(=O)[C@H](Cc1c[nH]c2ccccc12)NC(=O)[C@H](C)NC(=O)[C@H](CO)NC(=O)[C@H](C)NC(=O)[C@@H]1CCCN1C(=O)[C@@H](N)Cc1c[nH]cn1)[C@@H](C)O)C(=O)N[C@@H](Cc1ccc(O)cc1)C(=O)O
T cell response [SFC] [3]: 38 SFC

TPFGIIPAL
T cell response [SFC] (per epitope, ex vivo IFNγ SFC/10^6 PBMC): 183 SFC

CC[C@H](C)[C@H](NC(=O)[C@H](CC(C)C)NC(=O)[C@H](CC(C)C)NC(=O)[C@@H](NC(=O)[C@H](CCSC)NC(=O)[C@H](CC(C)C)NC(=O)[C@@H](N)Cc1ccccc1)C(C)C)C(=O)N1CCC[C@H]1C(=O)N[C@@H](CCC(=O)O)C(=O)N1CCC[C@H]1C(=O)O
T cell response [SFC] [2]: 98 SFC

CC(C)C[C@H](NC(=O)[C@H](Cc1c[nH]c2ccccc12)NC(=O)[C@@H](NC(=O)[C@@H]1CCCN1C(=O)[C@@H](N)CC(C)C)C(C)C)C(=O)N[C@@H](C)C(=O)N[C@@H](Cc1ccc(O)cc1)C(=O)N[C@@H](CCCCN)C(=O)N[C@H](C(=O)N[C@@H](C)C(=O)O)C(C)C
T cell response [SFC] [3]: 27 SFC

CC[C@H](C)[C@H](NC(=O)[C@H](CC(C)C)NC(=O)[C@H](Cc1ccccc1)NC(=O)[C@H](CC(C)C)NC(=O)[C@H](CCSC)NC(=O)[C@H](C)NC(=O)CN)C(=O)N[C@@H](CO)C(=O)NCC(=O)N[C@@H](CCCCN)C(=O)O
T cell response [SFC] [4]: 212 SFC

CC[C@H](C)[C@H](NC(=O)[C@H](Cc1ccc(O)cc1)NC(=O)CNC(=O)[C@H](CCCNC(=N)N)NC(=O)[C@H](C)NC(=O)[C@H](C)NC(=O)[C@@H](NC(=O)[C@H](CO)NC(=O)[C@H](C)NC(=O)[C@@H]1CCCN1)[C@@H](C)CC)C(=O)O
T cell response [SFC] [5]: 140 SFC

CSCC[C@H](NC(=O)[C@H](C)NC(=O)[C@H](CCSC)NC(=O)[C@H](CC(C)C)NC(=O)[C@@H](N)[C@@H](C)O)C(=O)N[C@@H](CC(=O)O)C(=O)N[C@@H](CC(C)C)C(=O)NCC(=O)N[C@@H](CCC(=O)O)C(=O)N[C@@H](CC(C)C)C(=O)O
T cell response [SFC] [2]: 67 SFC
